Measured values: patent US20260042834A1, “ANTI-CORTICOTROPIN-RELEASING HORMONE ANTIBODIES AND POLYCYSTIC OVARY SYNDROME” (HBM ALPHA THERAPEUTICS, INC., priority 2022, published 2026)

How the values were obtained:
[1] = target: T1, biotinylated CRH (Homo sapiens, UniProt P06850); test: Affinity determination with Octet; assay type: binding
T1 construct: purchased GL Biochem 784751
T1 sequence (P06850 154-194): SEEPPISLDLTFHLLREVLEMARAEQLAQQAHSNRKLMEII
Method: Octet® Red 96e was used for affinity measurement. Octet® running buffer was prepared by diluting kinetics buffer 10× (Fortebio, Cat #18-1105) in PBS according to the manufacturer's instructions. Two columns of SA sensors (Fortebio, Cat #18-5019) were hydrated in running buffer for 10 mins, one for ligand capturing and the other for reference. Antibodies were 2-fold diluted and added into a 96-well plate. 30 nM biotinylated CRH (GL Biochem, Cat #784751) was captured by the first column of SA sensors for 20 seconds, while reference sensors were dipped into buffer wells. After a 60-second baseline step, sensors were dipped into analyte and buffer wells successively, with the association and dissociation time of 180 seconds and 800 seconds, respectively. Sensors were regenerated in glycine pH1.5 (Cytiva, Cat #BR-1003-54) before the next cycle. […] Signals of reference wells and reference sensors were subtracted by selecting “Double reference” before data fitting.

[2] = tested on: human CRHR2; test: CRH-induced luciferase reporter blocking assay, CHO-CRE-hCRHR2 cells; assay type: cell-based; settings: CHO-CRE-hCRHR2 cells, 0.1 nM CRH
Method: (§1) To create CHO-CRE-hCRHR1, -hCRHR2, -mCRHR1, and -mCRHR2 reporter cell lines, pcDNA3.1-hCRHR1, -hCRHR2, -mCRHR1, and -mCRHR2 were introduced into CHO-CRE cells established above by electroporation as described above. Selection antibiotics hygromycin at 500 μg/ml and G418 at 1,000 μg/ml were employed. Individual established stable cell lines were characterized by both CRH and forskolin stimulation.
Activated GPCR proteins increase production of the intracellular cAMP. CHO-CRE-human CRHR1 stable clone 11 was generated by introduction of pcDNA3.1-human CRHR1 under the selection of G418 and hygromycin. Human CRHR1 expression in CHO-CRE-hCRHR1 Clone 11 was confirmed by flow cytometry (data not shown). To further validate that the cell line was functional, CHO-CRE-hCRHR1 Clone 11 cells were treated with forskolin and CRH peptide. […] Subsequently CHO-CRE-hCRHR2 Clone 32, -mCRHR1 Clone 22, and -mCRHR2 Clone 8 cell lines were established using similar methodology and validated with CRH treatment (data not shown).
Blocking CRHR1 by small molecules or neutralization of CRH peptide can reduce luciferase expression if the CRH-CRHR1 system works in CHO-CRE-hCRHR1 cells. Antalarmin, a small molecule CRHR1 antagonist, blocked CRH-mediated luciferase expression in CHO-CRE-hCRHR1 Clone 11 (data not shown). Furthermore, sheep anti-CRH polyclonal antibody reduced CRH-mediated luciferase expression in these cells (data not shown). Likewise, sheep anti-CRH polyclonal antibody blocked CRH-mediated luciferase expression in CHO-CRE-hCRHR2, CHO-CRE-mCRHR1, and CHO-CRE-mCRHR2 cells (data not shown).
(§2) Cells were digested by trypsin-EDTA (Life technologies, Cat #:12604-013), centrifuged at 1,000 rpm for 5 min, resuspended in growth medium, counted using a cell counter, seeded at a concentration of 5,000 cells per 100 μl in 96-well flat plates, and incubated overnight. 50 μl of 4× serially diluted antibodies was added (8 points, 1/4 diluted by growth medium) to plates containing CHO-CRE-hCRHR1 cells, and 50 μl of 4×CRH (4× is 2 nM, final is 0.5 nM) was added. Similarly, 4×CRH (4× is 0.4 nM, final is 0.1 nM) was added to CHO-CRE-hCRHR2 cells and CHO-CRE-mCRHR1 cells, and 4×CRH (4× is 20 nM, final is 5 nM) was added to CHO-CRE-mCRHR2 cells. Next, plates were incubated 4-6 hours at 37° C. in a CO2 incubator. 60 μl of culture medium was removed, to which was added 60 μl of Bio-Glo luciferase, followed by incubation for 10 min at RT. Plates were read in a luciferase plate reader (EnVision, PerkinElmer).

[3] = tested on: mouse CRHR2; test: CRH-induced luciferase reporter blocking assay, CHO-CRE-mCRHR2 cells; assay type: cell-based; settings: CHO-CRE-mCRHR2 cells, 5 nM CRH
Method: as §1, with “stimulation. […]” for “stimulation.”
as §2

B1: PR006146: ΔPTM variant of Series 1 mAb PR004290; HCDR2 54DA55, LCDR1 36DS37 (antibody)
heavy: EVQLVESGGVLVQPGGSLRLSCAASGFTFSSYWMTWVRQAPGKGLEWVANIKQDASEKYYVDSVKGRFTISRDNAKNSLFLQMNSLRAEDTAVYYCARTLIFDYWGQGTLVTVSSASTKGPSVFPLAPSSKSTSGGTAALGCLVKDYFPEPVTVSWNSGALTSGVHTFPAVLQSSGLYSLSSVVTVPSSSLGTQTYICNVNHKPSNTKVDKKV[human IgG1 Fc not listed]
light: DIVMTQSPLSLPVTPGEPASISCRSSQSLLHSTGYDSLEWYLQKPGQSPQLLIYLGSNRASGVPDRFSGSGSGTDFTLKISRVEAEDVGIYYCMQTLQTPITFGQGTRLEIKRTVAAPSVFIFPPSDEQLKSGTASVVCLLNNFYPREAKVQWKVDNALQSGNSQESVTEQDSKDSTYSLSSTLTLSKADYEKHKVYACEVTHQGLSSPVTKSFNRGEC
kdis [1]: 4.84e-05 s⁻¹
kon [1]: 445000 M⁻¹ s⁻¹
IC50 [2]: 17 nM
IC50 [3]: 10.7 nM

B2: PR006147: ΔPTM variant of Series 1 mAb PR004290; HCDR2 54DA55, LCDR1 36HS37 (antibody)
heavy: EVQLVESGGVLVQPGGSLRLSCAASGFTFSSYWMTWVRQAPGKGLEWVANIKQDASEKYYVDSVKGRFTISRDNAKNSLFLQMNSLRAEDTAVYYCARTLIFDYWGQGTLVTVSSASTKGPSVFPLAPSSKSTSGGTAALGCLVKDYFPEPVTVSWNSGALTSGVHTFPAVLQSSGLYSLSSVVTVPSSSLGTQTYICNVNHKPSNTKVDKKV[human IgG1 Fc not listed]
light: DIVMTQSPLSLPVTPGEPASISCRSSQSLLHSTGYHSLEWYLQKPGQSPQLLIYLGSNRASGVPDRFSGSGSGTDFTLKISRVEAEDVGIYYCMQTLQTPITFGQGTRLEIKRTVAAPSVFIFPPSDEQLKSGTASVVCLLNNFYPREAKVQWKVDNALQSGNSQESVTEQDSKDSTYSLSSTLTLSKADYEKHKVYACEVTHQGLSSPVTKSFNRGEC
kdis [1]: 6.96e-05 s⁻¹
kon [1]: 489000 M⁻¹ s⁻¹
IC50 [2]: 37.8 nM
IC50 [3]: 18.2 nM

B3: PR006148: ΔPTM variant of Series 1 mAb PR004290; HCDR2 54DA55, LCDR1 36NP37 (antibody)
heavy: EVQLVESGGVLVQPGGSLRLSCAASGFTFSSYWMTWVRQAPGKGLEWVANIKQDASEKYYVDSVKGRFTISRDNAKNSLFLQMNSLRAEDTAVYYCARTLIFDYWGQGTLVTVSSASTKGPSVFPLAPSSKSTSGGTAALGCLVKDYFPEPVTVSWNSGALTSGVHTFPAVLQSSGLYSLSSVVTVPSSSLGTQTYICNVNHKPSNTKVDKKV[human IgG1 Fc not listed]
light: DIVMTQSPLSLPVTPGEPASISCRSSQSLLHSTGYNPLEWYLQKPGQSPQLLIYLGSNRASGVPDRFSGSGSGTDFTLKISRVEAEDVGIYYCMQTLQTPITFGQGTRLEIKRTVAAPSVFIFPPSDEQLKSGTASVVCLLNNFYPREAKVQWKVDNALQSGNSQESVTEQDSKDSTYSLSSTLTLSKADYEKHKVYACEVTHQGLSSPVTKSFNRGEC
kdis [1]: 5.42e-05 s⁻¹
IC50 [2]: 6.11 nM
IC50 [3]: 4.71 nM

B4: PR006149: ΔPTM variant of Series 1 mAb PR004290; HCDR2 54DA55, LCDR1 36SS37 (antibody)
heavy: EVQLVESGGVLVQPGGSLRLSCAASGFTFSSYWMTWVRQAPGKGLEWVANIKQDASEKYYVDSVKGRFTISRDNAKNSLFLQMNSLRAEDTAVYYCARTLIFDYWGQGTLVTVSSASTKGPSVFPLAPSSKSTSGGTAALGCLVKDYFPEPVTVSWNSGALTSGVHTFPAVLQSSGLYSLSSVVTVPSSSLGTQTYICNVNHKPSNTKVDKKV[human IgG1 Fc not listed]
light: DIVMTQSPLSLPVTPGEPASISCRSSQSLLHSTGYSSLEWYLQKPGQSPQLLIYLGSNRASGVPDRFSGSGSGTDFTLKISRVEAEDVGIYYCMQTLQTPITFGQGTRLEIKRTVAAPSVFIFPPSDEQLKSGTASVVCLLNNFYPREAKVQWKVDNALQSGNSQESVTEQDSKDSTYSLSSTLTLSKADYEKHKVYACEVTHQGLSSPVTKSFNRGEC
kdis [1]: 7.78e-05 s⁻¹
kon [1]: 487000 M⁻¹ s⁻¹
IC50 [2]: 24.9 nM
IC50 [3]: 15.5 nM

B5: PR006150: ΔPTM variant of Series 1 mAb PR004290; HCDR2 54DS55, LCDR1 36DS37 (antibody)
heavy: EVQLVESGGVLVQPGGSLRLSCAASGFTFSSYWMTWVRQAPGKGLEWVANIKQDSSEKYYVDSVKGRFTISRDNAKNSLFLQMNSLRAEDTAVYYCARTLIFDYWGQGTLVTVSSASTKGPSVFPLAPSSKSTSGGTAALGCLVKDYFPEPVTVSWNSGALTSGVHTFPAVLQSSGLYSLSSVVTVPSSSLGTQTYICNVNHKPSNTKVDKKV[human IgG1 Fc not listed]
light: DIVMTQSPLSLPVTPGEPASISCRSSQSLLHSTGYDSLEWYLQKPGQSPQLLIYLGSNRASGVPDRFSGSGSGTDFTLKISRVEAEDVGIYYCMQTLQTPITFGQGTRLEIKRTVAAPSVFIFPPSDEQLKSGTASVVCLLNNFYPREAKVQWKVDNALQSGNSQESVTEQDSKDSTYSLSSTLTLSKADYEKHKVYACEVTHQGLSSPVTKSFNRGEC
kdis [1]: 5.66e-05 s⁻¹
kon [1]: 555000 M⁻¹ s⁻¹
IC50 [2]: 14.6 nM
IC50 [3]: 4.6 nM

B6: PR006151: ΔPTM variant of Series 1 mAb PR004290; HCDR2 54DS55, LCDR1 36HS37 (antibody)
heavy: EVQLVESGGVLVQPGGSLRLSCAASGFTFSSYWMTWVRQAPGKGLEWVANIKQDSSEKYYVDSVKGRFTISRDNAKNSLFLQMNSLRAEDTAVYYCARTLIFDYWGQGTLVTVSSASTKGPSVFPLAPSSKSTSGGTAALGCLVKDYFPEPVTVSWNSGALTSGVHTFPAVLQSSGLYSLSSVVTVPSSSLGTQTYICNVNHKPSNTKVDKKV[human IgG1 Fc not listed]
light: DIVMTQSPLSLPVTPGEPASISCRSSQSLLHSTGYHSLEWYLQKPGQSPQLLIYLGSNRASGVPDRFSGSGSGTDFTLKISRVEAEDVGIYYCMQTLQTPITFGQGTRLEIKRTVAAPSVFIFPPSDEQLKSGTASVVCLLNNFYPREAKVQWKVDNALQSGNSQESVTEQDSKDSTYSLSSTLTLSKADYEKHKVYACEVTHQGLSSPVTKSFNRGEC
kdis [1]: 8e-05 s⁻¹
kon [1]: 500000 M⁻¹ s⁻¹
IC50 [2]: 14.2 nM
IC50 [3]: 23 nM

B7: PR006153: ΔPTM variant of Series 1 mAb PR004290; HCDR2 54DS55, LCDR1 36SS37 (antibody)
heavy: EVQLVESGGVLVQPGGSLRLSCAASGFTFSSYWMTWVRQAPGKGLEWVANIKQDSSEKYYVDSVKGRFTISRDNAKNSLFLQMNSLRAEDTAVYYCARTLIFDYWGQGTLVTVSSASTKGPSVFPLAPSSKSTSGGTAALGCLVKDYFPEPVTVSWNSGALTSGVHTFPAVLQSSGLYSLSSVVTVPSSSLGTQTYICNVNHKPSNTKVDKKV[human IgG1 Fc not listed]
light: DIVMTQSPLSLPVTPGEPASISCRSSQSLLHSTGYSSLEWYLQKPGQSPQLLIYLGSNRASGVPDRFSGSGSGTDFTLKISRVEAEDVGIYYCMQTLQTPITFGQGTRLEIKRTVAAPSVFIFPPSDEQLKSGTASVVCLLNNFYPREAKVQWKVDNALQSGNSQESVTEQDSKDSTYSLSSTLTLSKADYEKHKVYACEVTHQGLSSPVTKSFNRGEC
kdis [1]: 8.36e-05 s⁻¹
kon [1]: 487000 M⁻¹ s⁻¹
IC50 [2]: 31.4 nM
IC50 [3]: 19.2 nM
